# Screens (PubChem)
# rTrxR1 inhibitor: blocks rat thioredoxin reductase 1; 1% of 390,000 active; recombinant rTrxR1, NADPH fluorescence consumption, selenite substrate; AID 588453; O89049; Potency, µM (titrated, usually from 114 µM), for the others: top-dose activity change, negative = inhibition, actives largely listed as inhibitors; note: potency is the fitted concentration of half-maximal effect; % is set by controls: 0 for no effect and ±100 for the full control effect; nearly all actives have a fitted effect of over 65% in size
#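 Rat TrxR1 (90 nM in the dispensed reagent) was pre-reduced with 400 uM NADPH for 5 min at room temperature, then incubated with compound for 15 min. After 400 uM selenite was added, NADPH fluorescence (Ex 340/Em 450 nm) was followed for 8 min.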
# PINK1 expr mod: modulators of PINK1 expression; 0.2% of 410,000 active; Potency, µM (highest dose often 76.6 µM), inactives show at the top dose activation (PINK1 increase), most hits filed as activators; AID 624263; PINK1 immunofluorescence, high-content cytometry, 24 h; active = well fitted activation curve with a large enough effect; inconclusive = small, poorly fitted or top-dose-only effect; cell line not stated here; note: potency is the fitted concentration of half-maximal effect; % of control where 0% means no effect; nearly all actives have a fitted effect of over 65% in size
#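 Fluorescence from anti-PINK1 antibody, together with nuclear and cell stains, was scanned on a laser-scanning cytometer. Before staining, stable-line cells were incubated 24 hours with compounds at 5 concentrations; primary antibody 12 h at 10 degrees C.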
# TrxR1 substrate: substrates of rat thioredoxin reductase 1; 0.01% of 390,000 active; Potency, µM (titrated, usually from 114 µM), for inactives: at the highest dose activity change, negative = substrate turnover; O89049; purified TrxR1 substrate turnover, NADPH consumption readout; note: potency is the fitted concentration of half-maximal effect; % is set by controls: 0 for no effect and ±100 for the full control effect; nearly all actives have a fitted effect of over 50% in size
#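 Rat TrxR1, dispensed at 90 nM, was prereduced with 400 uM NADPH (final) for 5 min at ~22 deg C, then incubated with compound 15 min before 400 uM selenite. A first-read NADPH fluorescence drop versus no-compound background flagged substrates.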
# GALK inhibitor: galactokinase (human) inhibition. P51570. Potency, µM (top dose mostly 57.5 µM), without a hit: at the highest dose activity change, negative = inhibition, hits mostly inhibitors. 0.007% of 270,000 active. Purified GALK, Kinase-Glo residual ATP luminescence; note: potency is the fitted concentration of half-maximal effect; % is set by controls: 0 for no effect and ±100 for the full control effect
#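 Kinase-Glo Plus luminescence measured ATP left after a 1 h room-temperature reaction. The reaction used 5 nM GALK, 100 uM galactose and 35 uM ATP at pH 8.0 (20 mM HEPES, 5 mM MgCl2, 60 mM NaCl, 1 mM DTT, 0.01% BSA).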
# miR-21 reporter: raises the signal of a miR-21 reporter | HeLa miR-21 FLuc reporter, luciferase, 48 h | Potency, µM (doses to about 38.3 µM), without a hit: at the top dose reporter change, positive = more light | 340,000 tested, under 10 active | AID 2288; active = well fitted rising curve with a large enough effect; inconclusive = small, poorly fitted or top-dose-only effect; inactive = no such curve, though single readings can be large or run the other way;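 note: % of control where 0% means no effect; miR-21 action dims this reporter so a rising signal means less miR-21 action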
#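 HeLa cells endogenously expressing miR-21, stably carrying CMV-driven firefly luciferase with a downstream miR-21 binding site, 2000 cells/well. Titrations up to approximately 40 uM, 48 hours; luciferase luminescence read.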
# The depositor's hits bear a star; ? = inconclusive; nt = no result given; [ ] = dose if it differs, or a comment. Rows were chosen to be rich in hits. Some 1.1% of all compounds tested hit in one or more screens of this group. Unless noted, calls come from the whole dose curve; as a rule, active = well fitted curve in the direction sought with a large enough effect; inconclusive = small, poorly fitted or top-dose-only effect, or another doubt; inactive = no such curve, though single readings can be large; an effect the other way counts as inactive or inconclusive.
# The line under a structure holds: GALK inhibitor, rTrxR1 inhibitor, PINK1 expr mod, miR-21 reporter, TrxR1 substrate
O=C(COc1ccc2cc(-c3ccccc3)c(=O)oc2c1)NCC1CCC(C(=O)O)CC1 (stereo not drawn)
  nt, 32µM*, -1%, -2%, 892%
Nc1cccc2[nH]cnc12
  nt, 0%, nt, nt, 1%
O=C(CCS(=O)(=O)c1ccc(Br)cc1)Nc1cc(F)ccc1F
  2%, 35µM*, 0%, 4%, -1%
O=C(CCS(=O)(=O)c1ccc(Br)cc1)Nc1ccc(F)cc1F
  nt, 5%[57.1 µM], -1%, -2%, -1%[57.1 µM]
COc1ccccc1CNC(=O)CCCCn1c(=O)c2ccccc2n(CC(=O)Nc2c(C)cc(C)cc2C)c1=O
  nt, 17%, 0%, 0%, -1%
CC(=O)Nc1ccc(C(=O)N2CCCC(n3cc(C(=O)NCC(C)C)nn3)C2)cc1 (stereo not drawn)
  nt, nt, 1%, nt, nt
O=C(Nc1c2c(nn1-c1ccc(Cl)cc1)CS(=O)(=O)C2)c1ccc(Br)cc1
  nt, 16%[57.1 µM], 32µM*, 29%, 0%[57.1 µM]
O=C(Nc1ccccc1)N1CC[C@@]2(CCCN(C(=O)c3cccc(F)c3)C2)C1
  nt, nt, 0%, nt, nt
CCC(=O)N1CCc2cc(Br)cc(S(=O)(=O)N3CCCC(C(=O)Nc4cc(C)ccc4OC)C3)c21 (stereo not drawn)
  nt, 89µM*, 1%, 1%, 0%
Cc1ccc(C2C=C(c3ccc(Cl)cc3)Nc3nc(NC(=O)c4ccco4)nn32)cc1 (stereo not drawn)
  nt, 40µM*, -1%, 28%, 9%
COc1ccccc1C(=O)Nc1nc2n(n1)C(c1ccc(F)cc1)C=C(c1ccc(Cl)cc1)N2 (stereo not drawn)
  nt, 1%, -2%, -30%, -5%
Nc1nnc(SCC(=O)Nc2cccc(F)c2)s1
  nt, 9%, -1%, -5%, 9%
Cc1cccc(N2CCN(C(=O)C3CCN(S(=O)(=O)c4c(C)noc4/C=C/c4ccccc4F)CC3)CC2C)c1 (stereo not drawn)
  nt, 25%[57.1 µM], 0%, 15%, 5%[57.1 µM]
CCn1c(-c2ccccc2F)nc2cc(NC(C)=O)cc(C(=O)N3CCCC3c3nccs3)c21 (stereo not drawn)
  nt, nt, -1%, nt, nt
O=C(Nc1ccc2ccccc2c1)c1ccccc1O
  -2%, -4%, 14µM*, ?, 1%
Cc1cc(F)ccc1S(=O)(=O)Nc1ccc2oc3c(c2c1)CC(C)CC3 (stereo not drawn)
  nt, 30%, 7%, 17%, -7%
Cc1cccc(-c2nc(N3CCN(c4ccc(F)cc4)CC3)c3ccccc3n2)c1
  nt, 25%, 1%, 1%, 10%
CCOc1ccc(C(NC(=O)CC)c2c(O)ccc3ccccc23)cc1 (stereo not drawn)
  0%, 29%, 6%, 7%, 7%
CC(=O)Oc1ccc2ccccc2c1C(NC(=O)Cc1ccccc1)c1ccc(Cl)cc1 (stereo not drawn)
  -2%, 18%[57.1 µM], 14µM*, 23%, -5%[57.1 µM]
CC(C)C[C@@H](C(=O)O)N(Cc1cccc(CN([C@@H](CC(C)C)C(=O)O)S(C)(=O)=O)c1)S(C)(=O)=O
  nt, -3%, 0%, 2%, 1%

# 4 of the compounds above, as labelled records:
CCn1c(-c2ccccc2F)nc2cc(NC(C)=O)cc(C(=O)N3CCCC3c3nccs3)c21 (stereo not drawn)
- GALK inhibitor: nt
- rTrxR1 inhibitor: nt
- PINK1 expr mod: -1%
- miR-21 reporter: nt
- TrxR1 substrate: nt
O=C(Nc1c2c(nn1-c1ccc(Cl)cc1)CS(=O)(=O)C2)c1ccc(Br)cc1
- GALK inhibitor: nt
- rTrxR1 inhibitor: 16%[57.1 µM]
- PINK1 expr mod: 32µM*
- miR-21 reporter: 29%
- TrxR1 substrate: 0%[57.1 µM]
O=C(Nc1ccc2ccccc2c1)c1ccccc1O
- GALK inhibitor: -2%
- rTrxR1 inhibitor: -4%
- PINK1 expr mod: 14µM*
- miR-21 reporter: ?
- TrxR1 substrate: 1%
Cc1cccc(N2CCN(C(=O)C3CCN(S(=O)(=O)c4c(C)noc4/C=C/c4ccccc4F)CC3)CC2C)c1 (stereo not drawn)
- GALK inhibitor: nt
- rTrxR1 inhibitor: 25%[57.1 µM]
- PINK1 expr mod: 0%
- miR-21 reporter: 15%
- TrxR1 substrate: 5%[57.1 µM]

# (continued)
# The line under a structure holds: GALK inhibitor, rTrxR1 inhibitor, PINK1 expr mod, miR-21 reporter, TrxR1 substrate
CS(=O)(=O)N(Cc1cccc(CN(C(C(=O)O)c2ccccc2)S(C)(=O)=O)c1)C(C(=O)O)c1ccccc1 (stereo not drawn)
  nt, 50µM*, 1%, -2%, 1%
Cc1ccc(C)c(NC(=O)CSc2ncc3c(n2)-c2ccc(Cl)cc2N(C)S3(=O)=O)c1
  nt, 17%[57.1 µM], 1%, 0%, 0%[57.1 µM]
CC(C)[C@H](NC(=O)OC(C)(C)C)c1nnc(S(=O)(=O)Cc2c(F)cccc2Cl)o1
  -1%, 0.71µM*, 6.3µM*, ?, 10%
CC[C@@H](C)[C@H](NC(=O)OC(C)(C)C)c1nnc(S(=O)(=O)Cc2cc(C)ccc2C)o1
  0%, 1.1µM*, 5%, ?, -3%
CC(C)C[C@H](N)c1nnc(S(=O)(=O)Cc2cccc(F)c2)o1
  -3%, 0.63µM*, 2%[38.3 µM], 25%, 11%[57.1 µM]
CC[C@@H](C)[C@H](NC(=O)OCc1ccccc1)c1nnc([C@@H](NC(=O)OCc2ccccc2)[C@@H](C)CC)o1
  -2%, 18%, 5%, 5%, 4%
CC(C)C[C@H](NC(=O)OC(C)(C)C)c1nnc(SCc2ccccc2)o1
  0%, 12%, -1%, -3%, -7%
C[C@H](NC(=O)OC(C)(C)C)c1nnc(SCc2c(F)cccc2Cl)o1
  nt, 39%[11.4 µM], 0%, 28%, -1%
Cc1ccccc1CS(=O)(=O)c1nnc([C@H](CC(C)C)NC(=O)OC(C)(C)C)o1
  1%, 4µM*, 8%[38.3 µM], ?, 9%
COc1ccc(CNc2ncnc3ccc(-c4ccc5c(c4)OCO5)cc23)c(OC)c1
  nt, nt, 2%, nt, nt
COc1ccccc1-c1nc2c(c(SCc3cccc(Cl)c3)n1)Cc1c(CO)cnc(C)c1O2
  nt, 5%, 0%, -6%, -2%
COc1ccc(CCNCc2c(C(=O)O)c(C)n(Cc3cccc(Cl)c3)c2C)c(OC)c1OC
  nt, 12%, -2%, -4%, 2%
Cc1ccc2ncc(C)c(/C=C/c3ccc(N(C)C)cc3)c2c1
  nt, -6%, nt, nt, -4%
CC(C)(C)OC(=O)N[C@@H](Cc1ccccc1)c1nnc(S(=O)(=O)Cc2cccc(F)c2)o1
  5%, 0.63µM*, 0%, ?, -9%
COc1ccc(-c2nc(SCC(=O)NC(C)CCc3ccccc3)n[nH]2)cc1 (stereo not drawn)
  nt, 2%[57.1 µM], -1%, 28%, -2%[57.1 µM]
CCCCn1c(SCC(=O)Nc2sc3c(c2C(N)=O)CCC3)nnc1-c1ccccc1
  nt, 35µM*, 1%, nt, 11%[57.1 µM]
Cc1ccc(N2C(=O)CS/C2=C(\C(Cl)=C(Cl)Cl)[N+](=O)[O-])cc1
  2%, 32µM*, -5%[38.3 µM], -2%, 0%
Cc1ccc(N2C(=O)CSCC2=O)cc1
  -1%, -6%, 1%, 4%, -4%
Fc1ccc(CN2CCN(C(c3ccccc3)c3ccccc3)CC2)cc1
  0%, 11%, 40µM*, 5%, -4%
c1ccc(CN2CCN(C(c3ccccc3)c3ccccc3)CC2)cc1
  -6%, -5%[57.1 µM], ?, 11%, -6%[57.1 µM]
c1ccc(OCCOCCN2CCN(C(c3ccccc3)c3ccccc3)CC2)cc1
  1%, -10%, ?, 17%, -14%
O=S(=O)(CCN1CCN(C(c2ccccc2)c2ccccc2)CC1)C(F)(F)F
  5%, 1.6µM*, 0%[38.3 µM], -9%, 1%[57.1 µM]
Cc1nn(-c2nc(-c3ccc(F)cc3)cc(C(F)(F)F)n2)c(C)c1Br
  nt, 1%, 1%, -1%, -1%
O=C(/C=C\c1ccccc1)NC1CC(=O)N(c2ccccc2)C1 (stereo not drawn)
  nt, 10%[57.1 µM], 1%, -2%, 4%[57.1 µM]
COc1ccc(-c2cc3nccc(-c4cc(Cl)c(C)cc4O)n3n2)cc1
  nt, 14%, 7%, -8%, 13%
COc1cc(CN2c3ccc(Br)cc3C(=O)CS2(=O)=O)cc(OC)c1
  nt, ?, nt, nt, -5%
C=CCN1c2ccc(Br)cc2C(=O)CS1(=O)=O
  nt, 7.1µM*, 0%, nt, 4%
